Experimental data taken from patent US20050281900A1, “Plant extract of the species Vitis vinifera as no-synthase inhibitor and uses” (L'OREAL, priority 2000, published 2005).

Target: T1, inducible NO-synthase (NOS 2) (Homo sapiens, UniProt P35228)
T1 construct: positive control (induction of the enzyme); endogenous in cells
Assay: Activity on inducible NO-synthase: decrease in nitrate and nitrite concentration after stimulation of NO-synthase 2 (test of Heck et al.)
Type: cell-based
Details: control compound at 200 μM, nitrites and nitrates measured
Procedure: The activity of the extracts on inducible NO-synthase was evaluated in the test described by Heck et al. (J.B.C., Vol. 267, No. 30, 21277-21280, Oct. 25, 1992). […] N^G-monomethyl-L-arginine (L form) at 200 μM; • C: control for specificity of inhibition: N^G-monomethyl-L-arginine (D form) at 200 μM. In order to determine the activity of the product to be tested, the amount of stable NO reaction products (nitrites and nitrates) is measured using the nitric calorimetric assay kit sold by the company Boehringer under the reference 1756.28.

Structure (SMILES)	% inhibition [%]
CNC(=N)NCCC[C@H](N)C(=O)O [B, N^G-monomethyl-L-arginine]	100
CNC(=N)NCCC[C@H](N)C(=O)O [C, N^G-monomethyl-L-arginine]	0
